This note sets out measurements from ChEMBL document CHEMBL1123623, “Synthesis of some [N-(2-haloalkyl)amino]tetralin derivatives as potential irreversible labels for bovine anterior pituitary D2 dopamine receptors” (J Med Chem, 1987).

Sequences of proteins named here, by UniProt entry; tags and fusion partners are left off.
UniProt P20288, whole entry, looked up: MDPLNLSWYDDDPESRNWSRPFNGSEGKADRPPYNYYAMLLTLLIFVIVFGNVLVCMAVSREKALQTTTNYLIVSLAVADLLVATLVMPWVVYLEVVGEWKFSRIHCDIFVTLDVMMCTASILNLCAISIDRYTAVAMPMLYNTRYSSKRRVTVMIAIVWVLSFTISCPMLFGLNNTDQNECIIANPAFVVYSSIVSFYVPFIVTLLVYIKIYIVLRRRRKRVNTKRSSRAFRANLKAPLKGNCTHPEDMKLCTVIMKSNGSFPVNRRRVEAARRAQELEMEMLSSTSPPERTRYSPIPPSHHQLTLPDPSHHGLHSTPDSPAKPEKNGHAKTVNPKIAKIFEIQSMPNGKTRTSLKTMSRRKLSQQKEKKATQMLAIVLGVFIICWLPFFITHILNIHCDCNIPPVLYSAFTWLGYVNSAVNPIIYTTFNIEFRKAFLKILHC

Assay [1] concerns the target T1, D(2) dopamine receptor (Bos taurus, UniProt P20288). The experiment in a line: Ability to displace [3H]spiperone binding from anterior pituitary Dopamine receptor D2 in the absence of GTP.
The target in assay [2] is T1, D(2) dopamine receptor. The experiment in a line: Ability to displace [3H]spiperone binding from anterior pituitary Dopamine receptor D2 in the presence of 100 uM GTP.
Assay [3] has as its target T1, D(2) dopamine receptor. The experiment in a line: Ability to displace [3H]spiperone binding from anterior pituitary Dopamine receptor D2 in the absence of GTP; NA means inactive.

As a reminder, the IC50 is the concentration that inhibits the measured activity by half. As to `Oc1cc2c(cc1O)CC(N(CCBr)CCBr)CC2` (stereo not drawn), the IC50 at D(2) dopamine receptor [1] is 22 µM; on D(2) dopamine receptor [2], 40.7 µM.

Regarding `Cl.Oc1ccc2c(c1O)CCC(N(CCCl)CCCl)C2` (stereo not drawn), the IC50 result on D(2) dopamine receptor [3] was “Not Active”.
